Assay results from patent publication US20020115843A1.

Key:
Assay in all cases: cell-based or functional assay
[1] = target: myc-His tagged DPRP-2 (expressed from pcDNA-MycHis-DPRP2) (human) (UniProt Q86TI2)
[2] = target: dipeptidyl peptidase IV (DPPIV) (UniProt P27487)
[3] = target: myc-His tagged DPRP-1 (expressed from pcDNA-MycHis-DPRP1) (human) (UniProt Q6V1X1)

Aprotinin (from UniProt P00974 36-93)
Residual activity (% of control), Ala-Pro-AMC cleavage, inhibitor at 5 µg/ml [1]: 63.2 % of control
Residual activity (% of control), Ala-Pro-AMC cleavage, inhibitor at 5 µg/ml [2]: 80.2 % of control
Residual activity (% of control), Ala-Pro-AMC cleavage, inhibitor at 5 µg/ml [3]: 77.5 % of control
